Assay results published in patent US5859257A (dated 1999).

Molecular target: COX-2
Assay: Evaluation of COX-2 activity in vitro (PGE2 ELISA, recombinant enzyme)
Assay type: biochemical, human or murine
Conditions: read-out: COX-2 IC50, arachidonic acid 10 μM, pH 8.0, pre-incubation 10-20 minutes

## NS(=O)(=O)c1ccc(-c2c(-c3ccccc3)noc2CO)cc1 [Example 10, 4-[5-Hydroxymethyl-3-phenylisoxazol-4-yl]benzenesulfonamide]
  IC50: 200 nM
